Experimental data taken from patent US9487512B2, “(Hetero)aryl cyclopropylamine compounds as LSD1 inhibitors” (ORYZON GENOMICS, S.A., priority 2011, dated 2016).
Where a name gives a salt, the structure may show the parent alone.

Test system: THP-1 cells
Assay: cells
Format: cell-based
Settings: Homo sapiens, THP-1, 96 h
Procedure: THP-1 were purchased from DSMZ GmbH (Deutsche Sammlung von Mikroorganismen und Zellkulturen) and cultured in RPMI 1640 medium containing 10% of fetal bovine serum.
Serial dilutions of the compounds were prepared in DMSO and then further diluted in complete medium to generate solutions of concentrations that are double of the final concentration at which the cells will be exposed. 1 ml of these 2× concentrated solutions was added to the cells.
Each treated sample was split in two. […] Samples were incubated in the dark at 4° C. for 30-60 minutes and washed three times in PBS buffer containing 1% fetal bovine serum.
EC50 values were calculated by non-linear regression analysis.

In the case of `c1ccc(COc2ccc([C@@H]3C[C@H]3NC3CCNCC3)cc2)cc1` (relative stereo) [Example 4, N-((trans)-2-(4-(benzyloxy)phenyl)cyclopropyl)piperidin-4-amine hydrochloride], the EC50 is reported as 1.9 nM.
